Source: US20250255832A1, “SKIN ADHESIVE PATCH FOR NEGATIVE PRESSURE STIMULATION AND MANUFACTURING METHOD THEREFOR” (Research & Business Foundation Sungkyunkwan University, priority 2022, published 2025)
Read-outs that look alike come from different tables or passages of the source.

Tests used:
[1] = human skin, vs without a patch
[2] = pig skin

With `CCN(CC)c1ccc2c(-c3ccccc3C(=O)O)c3ccc(=[N+](CC)CC)cc-3oc2c1.[Cl-]` [rhodamine B] the “delivery depth improved compared to w/o patch” value ([1]; 30 minutes after removal of the patch) was “up to 31%”, the “delivery depth improved compared to w/o patch” value ([1]; after 30 minutes of patch application) was “up to 56%” and the “delivery depth of the fluorescent particles (rhodamine B)” value ([2]; 30 minutes after removal of the d-SCC following 30 minutes of application) was “over 150 μm”. The “delivery depth improved compared to w/o patch” value ([2]; 30 minutes after removal of the d-SCC following 30 minutes of application, vs without a patch) was “up to 36%”, the “delivery depth of the fluorescent particles (rhodamine B)” value ([2]; d-SCC applied for 30 minutes) was “approximately 130 μm” and the “delivery depth improved compared to w/o patch” value ([2]; d-SCC applied for 30 minutes, vs fluorescent particles applied without a patch) was “up to 44%”.
